# Measured values published in patent US20090054326A1, “FORMULATIONS FOR ENHANCED MUCOSAL DELIVERY OF PYY” (NASTECH PHARMACEUTICAL COMPANY INC., priority 2005, published 2009).
# Assay: Intranasal administration of PYY(3-36) to humans
# Assay type: in vivo
substance,measurement,setting,value
PYY(3-36),appetite,administered intranasally to humans,reduce appetite
same,plasma level of PYY peptide reached,intranasal route,post-prandial physiological levels of a PYY peptide could be reached
